This is an account of results in US7709500B2, “Chemical compounds” (AstraZeneca AB, priority 2002, dated 2010).

Amino acid sequences for entries named in this document (tags omitted).
UniProt P35367, whole entry: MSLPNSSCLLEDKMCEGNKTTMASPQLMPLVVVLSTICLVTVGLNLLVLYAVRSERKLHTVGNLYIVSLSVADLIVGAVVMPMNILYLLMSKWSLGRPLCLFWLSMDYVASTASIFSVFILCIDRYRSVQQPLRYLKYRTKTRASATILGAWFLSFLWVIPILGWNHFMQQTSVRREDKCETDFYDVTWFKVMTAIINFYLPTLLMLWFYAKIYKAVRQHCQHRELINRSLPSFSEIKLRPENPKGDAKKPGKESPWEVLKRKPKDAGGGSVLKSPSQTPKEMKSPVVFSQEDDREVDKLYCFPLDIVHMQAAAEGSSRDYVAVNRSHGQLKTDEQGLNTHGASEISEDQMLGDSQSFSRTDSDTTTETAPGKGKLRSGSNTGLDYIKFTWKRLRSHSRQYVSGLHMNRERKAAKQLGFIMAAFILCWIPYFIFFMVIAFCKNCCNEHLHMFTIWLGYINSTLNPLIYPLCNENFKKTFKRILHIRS

SMILES strings stand for the structures.

The assay addresses T1, human H1 receptor (Homo sapiens, UniProt P35367).
T1 construct: purchased Euroscreen SA, Brussels, Belgium ES-390-M; host or cells: recombinant CHO-K1 cells (membranes)
The assay is described as follows: Histamine H1 receptor binding, competition displacement of [3H]-pyrilamine. Conditions: 1 nM [3H]-pyrilamine; membranes from recombinant CHO-K1 cells expressing the human H1 receptor; read-out: H1 pKi/[1328_S] (converted). (In general: Loss of bound radioactivity is the signal in a displacement assay; it reports binding, not function.)

`O=C(NC[C@@H](O)CN1CCC(Oc2ccc(Cl)c(Cl)c2)CC1)c1n[nH]c(=O)c2ccccc12` [Example 46, N-{(2R)-3-[4-(3,4-Dichlorophenoxy)piperidin-1-yl]-2-hydroxypropyl}-oxo-3,4-dihydrophthalazine-1-carboxamide]: the Ki was 6.31 nM.
